In patent US20250134946A1, “SELF-ASSEMBLING AMPHIPHILIC PEPTIDE HYDROGELS FOR TREATMENT OF NERVE INJURY” (GEL4MED, INC., priority 2021, published 2025):

Experiment: Endotoxin levels of different compositions (OD at 410 nm)

Buffer solution
Endotoxin level: −0.03694 EU/mL
